Laboratory results: patent US20090117083A1, “IMMUNOMODULATORY ALKALOIDS” (M N L PHARMA LIMITED, priority 2004, published 2009)

Chains of the proteins cited; added tags and fusions are not shown. Lines headed by an entry give the natural chain unless they say otherwise; changes in a name come on top. Residues count along the entry.
UniProt P53341: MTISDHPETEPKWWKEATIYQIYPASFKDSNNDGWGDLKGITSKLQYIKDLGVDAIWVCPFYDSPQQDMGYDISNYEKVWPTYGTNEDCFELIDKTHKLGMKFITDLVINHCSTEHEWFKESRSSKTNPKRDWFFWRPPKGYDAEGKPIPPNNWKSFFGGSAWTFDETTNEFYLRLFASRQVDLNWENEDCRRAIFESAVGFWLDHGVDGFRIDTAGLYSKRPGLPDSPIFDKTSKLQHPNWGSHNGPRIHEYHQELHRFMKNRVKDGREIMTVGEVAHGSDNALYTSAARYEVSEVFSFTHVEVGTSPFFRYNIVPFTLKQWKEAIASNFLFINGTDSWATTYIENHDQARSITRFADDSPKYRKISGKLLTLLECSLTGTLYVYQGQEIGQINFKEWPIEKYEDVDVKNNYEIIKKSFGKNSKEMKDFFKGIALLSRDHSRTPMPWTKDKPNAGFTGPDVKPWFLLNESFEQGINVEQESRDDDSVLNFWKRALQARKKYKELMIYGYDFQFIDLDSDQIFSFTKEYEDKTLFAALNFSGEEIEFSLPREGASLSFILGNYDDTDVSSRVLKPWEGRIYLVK
UniProt Q42656, 16-378: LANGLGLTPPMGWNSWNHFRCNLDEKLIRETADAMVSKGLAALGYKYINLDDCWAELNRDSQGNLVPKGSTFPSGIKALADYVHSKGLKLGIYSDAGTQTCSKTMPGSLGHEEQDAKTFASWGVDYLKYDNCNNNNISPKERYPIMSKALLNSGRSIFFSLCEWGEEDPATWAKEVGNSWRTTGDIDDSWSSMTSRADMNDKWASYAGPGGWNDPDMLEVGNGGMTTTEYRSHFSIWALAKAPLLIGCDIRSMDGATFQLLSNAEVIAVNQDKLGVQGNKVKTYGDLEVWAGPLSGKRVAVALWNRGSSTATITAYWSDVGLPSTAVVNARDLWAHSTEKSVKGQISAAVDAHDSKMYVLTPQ
UniProt C0HJB3, whole entry: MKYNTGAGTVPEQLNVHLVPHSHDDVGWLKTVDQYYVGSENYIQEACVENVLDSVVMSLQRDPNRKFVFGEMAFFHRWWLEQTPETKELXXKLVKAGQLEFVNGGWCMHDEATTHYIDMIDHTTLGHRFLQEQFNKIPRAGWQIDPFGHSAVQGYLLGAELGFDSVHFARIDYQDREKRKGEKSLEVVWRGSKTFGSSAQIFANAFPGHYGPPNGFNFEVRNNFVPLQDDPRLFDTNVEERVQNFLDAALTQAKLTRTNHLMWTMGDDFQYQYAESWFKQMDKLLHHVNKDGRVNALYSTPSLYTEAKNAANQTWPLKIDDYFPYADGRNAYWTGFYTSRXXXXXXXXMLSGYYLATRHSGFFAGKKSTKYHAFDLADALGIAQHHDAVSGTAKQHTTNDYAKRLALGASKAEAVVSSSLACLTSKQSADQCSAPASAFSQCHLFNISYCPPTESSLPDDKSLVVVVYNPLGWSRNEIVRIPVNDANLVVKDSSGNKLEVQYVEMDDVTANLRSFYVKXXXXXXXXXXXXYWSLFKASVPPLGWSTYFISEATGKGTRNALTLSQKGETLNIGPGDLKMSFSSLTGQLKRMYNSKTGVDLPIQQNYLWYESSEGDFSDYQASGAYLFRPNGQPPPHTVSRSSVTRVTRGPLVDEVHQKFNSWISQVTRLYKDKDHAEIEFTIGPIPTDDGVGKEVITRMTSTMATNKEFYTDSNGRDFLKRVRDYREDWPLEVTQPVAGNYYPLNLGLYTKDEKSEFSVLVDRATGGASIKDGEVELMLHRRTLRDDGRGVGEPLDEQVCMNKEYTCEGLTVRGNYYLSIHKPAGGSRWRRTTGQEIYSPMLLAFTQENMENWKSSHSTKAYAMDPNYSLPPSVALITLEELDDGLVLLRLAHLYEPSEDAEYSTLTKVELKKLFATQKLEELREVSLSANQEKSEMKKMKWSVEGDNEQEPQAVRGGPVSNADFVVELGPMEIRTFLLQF

Columns and labels:
[1] = test system: β-D-galactosidase; experiment: Glycosidase inhibition: β-D-galactosidase; type: biochemical, Bovine; details: 1 mg/ml; second galactosidase line
Experimental: (§1) All enzymes were purchased from Sigma, as were the appropriate p-nitrophenyl substrates. Assays were carried out in microtitre plates. Enzymes were assayed in 0.1M citric acid/0.2M di-sodium hydrogen phosphate (McIlvaine) buffers at the optimum pH for the enzyme. All assays were carried out at 20° C. For screening assays the incubation assay consisted of 10 μl of enzyme solution, 10 μl of inhibitor solution (made up in water) and 50 μl of the appropriate 5 mM p-nitrophenyl substrate (3.57 mM final conc.) made up in McIlvaine buffer at the optimum pH for the enzyme.
(§2) The reactions were stopped with 0.4M glycine (pH 10.4) during the exponential phase of the reaction, which was determined at the beginning of the assay using blanks with water, which were incubated for a range of time periods to measure the reaction rate using 5 mM substrate solution. Endpoint absorbances were read at 405 nm with a Biorad microtitre plate reader (Benchmark). Water was substituted for the inhibitors in the blanks.

[2] = target: T1, α-D-glucosidase (Saccharomyces cerevisiae, UniProt P53341); experiment: Glycosidase inhibition (p-nitrophenyl substrate): α-D-glucosidase, yeast; type: biochemical, Saccharomyces cerevisiae (Baker's yeast); details: 1 mg/ml; read-out: % inhibition, gluc (yeast)
T1 construct: purchased Sigma
Experimental: as §1, §2

[3] = target: T2, α-D-galactosidase (Coffea arabica, UniProt Q42656); experiment: Glycosidase inhibition: α-D-galactosidase; type: biochemical, Green coffee beans (Coffea sp.); details: read-out: % inhibition, galactosidase
T2 construct: purchased Sigma
Experimental: as §1, §2

[4] = target: T3, α-D-mannosidase (Canavalia ensiformis, UniProt C0HJB3); experiment: Glycosidase inhibition: α-D-mannosidase; type: biochemical, Jack beans (Canavalia ensiformis); details: read-out: % inhibition, mannosidase
T3 construct: purchased Sigma
Experimental: All enzymes were purchased from Sigma, as were the appropriate p-nitrophenyl substrates. Assays were carried out in microtitre plates. Enzymes were assayed in 0.1M citric acid/0.2M di-sodium hydrogen phosphate (McIlvaine) buffers at the optimum pH for the enzyme. All assays were carried out at 20° C.
Endpoint absorbances were read at 405 nm with a Biorad microtitre plate reader (Benchmark). Water was substituted for the inhibitors in the blanks.

| Compound | % inhibition, galactosidase [1] [%] | inhibition at 1000 µg/mL [2] [%] | inhibition at 1000 µg/mL [3] [%] | inhibition at 1000 µg/mL [4] [%] |
| --- | --- | --- | --- | --- |
| OC[C@H]1[C@@H](O)[C@H](O)[C@H]2[C@@H](O)[C@@H](O)CN21 [3,7-diepi-casuarine (10), (1R,2R,3S,6S,7R,7aR)-3-(hydroxymethyl)-1,2,6,7-tetrahydroxypyrolizidine] | 24 | -2 | -11 |  |
| OC[C@H]1[C@@H](O)[C@H](O)[C@H]2[C@H](O)[C@@H](O)CN21 [3-epi-casuarine (14), 3-epi-casuarine] | 6 | 0 |  | -4 |
| OC[C@@H]1[C@@H](O)[C@H](O)[C@H]2[C@@H](O)[C@@H](O)CN21 [7-epi-casuarine (11), 7-epi-casuarine] | 35 | 11 |  | 10 |
| OC[C@H]1[C@@H](O)[C@H](O)[C@H]2[C@@H](O)[C@H](O)CN21 [Compound 12, 3,6,7-triepi-casuarine] | 6 |  |  |  |
| OC[C@H]1[C@@H](O)[C@H](O)[C@@H]2[C@@H](O)[C@H](O)CN21 [Compound 21, 3,6,7,7a-tetraepi-casuarine] | 3 | -1 |  |  |
| OC[C@H]1[C@@H](O)[C@H](O)[C@@H]2[C@@H](O)[C@@H](O)CN21 [Compound 22, 3,7,7a-triepi-casuarine] | 52 |  | -2 | -1 |
| OC[C@@H]1[C@@H](O)[C@H](O)[C@H]2[C@H](O)[C@@H](O)CN21 [casuarine (8)] | 0 |  |  | 5 |
